Data published in PubChem BioAssay AID2642 (Johns Hopkins Ion Channel Center, 2010).
The list shows a part of the results, in another mix than the full data. Some tests of the compounds listed are not included; inactive here does not mean inactive elsewhere. Activity calls are given as the source filed them.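 The calls were made as follows: active = compounds whose thallium flux B-score, printed positive for inhibition, exceeds three library SD while starting fluorescence stays within three; inactive = the rest.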

The chains behind the UniProt entries cited, without tags or fusion partners.
UniProt P51787, whole entry: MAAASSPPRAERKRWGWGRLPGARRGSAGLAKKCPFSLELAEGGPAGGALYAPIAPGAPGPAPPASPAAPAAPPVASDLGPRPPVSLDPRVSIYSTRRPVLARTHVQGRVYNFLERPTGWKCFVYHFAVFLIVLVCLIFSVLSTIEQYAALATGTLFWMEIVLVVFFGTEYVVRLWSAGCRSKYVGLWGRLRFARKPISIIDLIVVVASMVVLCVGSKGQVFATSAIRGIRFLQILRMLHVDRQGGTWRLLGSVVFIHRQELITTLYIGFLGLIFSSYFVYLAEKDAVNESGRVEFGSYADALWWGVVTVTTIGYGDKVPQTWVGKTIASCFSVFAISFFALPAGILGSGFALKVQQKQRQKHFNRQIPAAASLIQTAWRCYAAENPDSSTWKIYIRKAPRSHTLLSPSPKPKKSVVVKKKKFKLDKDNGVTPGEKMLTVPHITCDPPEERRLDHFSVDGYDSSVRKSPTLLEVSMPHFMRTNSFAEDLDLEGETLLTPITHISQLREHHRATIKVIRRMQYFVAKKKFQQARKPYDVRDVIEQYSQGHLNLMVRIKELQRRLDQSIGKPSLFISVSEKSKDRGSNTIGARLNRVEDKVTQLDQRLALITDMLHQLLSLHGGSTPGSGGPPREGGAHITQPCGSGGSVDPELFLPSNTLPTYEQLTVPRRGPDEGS

Target: Potassium voltage-gated channel subfamily KQT member 1 (Homo sapiens) (UniProt P51787)
Assay: inhibitors of human KCNQ1 channel, primary screen, cell-based, thallium flux, high-throughput (AID 2642);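 also: channel opened by potassium depolarization with thallium stimulus after 20 min compound exposure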
Details: CHO-K1 KCNQ1, FluxOR thallium flux fluorescence; at 10 µM

Q: With `O=C(NCC1(N2CCCCC2)CCCCC1)c1cc(F)c(F)cc1Cl` as the compound, how does the outcome read?
A: inactive

Q: With `C=CCN1CCN(CCOC(=O)C(O)(c2ccccc2)c2ccccc2)CC1` as the compound, how does the outcome read?
A: inactive

Q: How did the outcome turn out when `COc1ccc(C(=O)NCC2(N(C)C)CCCCC2)cc1` was run?
A: inactive

Q: How did the outcome turn out when `O=C(NCC1(N2CCCCC2)CCCCC1)c1cccc(Br)c1` was run?
A: inactive

Q: How did the outcome turn out when `Cc1cc(C(=O)NCC2(N3CCCCC3)CCCCC2)ccc1[N+](=O)[O-]` was run?
A: inactive

Q: Which outcome does the source give for `CCN1CCCC(OC(=O)C2(O)c3ccccc3C=Cc3ccccc32)C1` (centres undefined) here?
A: inactive

Q: With `CN(C)C1CCCC1OC(=O)C(O)(c1ccccc1)c1ccccc1` (centres undefined) as the compound, how does the outcome read?
A: inactive

Q: Which outcome does the source give for `CN(C)c1ccc(C(=O)NCC2(N(C)C)CCCCC2)cc1` here?
A: inactive

Q: How did the outcome turn out when `Cc1ccccc1C(=O)NCC1(N2CCCCC2)CCCCC1` was run?
A: inactive

Q: `COc1cc(SC)ccc1C(=O)NCC1(N(C)C)CCCCC1` was tested. Which outcome did it give?
A: inactive

Q: `CCN(CC)CC(C)C(C)OC(=O)C(O)(c1ccccc1)c1ccccc1` (centres undefined) was tested. Which outcome did it give?
A: inactive

Q: With `CC(C)N1C(=O)CC2(CCN(CCOC(=O)C(O)(c3ccccc3)c3ccccc3)CC2)C1=O` as the compound, how does the outcome read?
A: inactive

Q: `Cc1ccc(C(=O)NCC2(N3CCCCC3)CCCCC2)cc1` was tested. Which outcome did it give?
A: inactive

Q: How did the outcome turn out when `O=C(NCC1(N2CCCCC2)CCCCC1)c1cc([N+](=O)[O-])ccc1Cl` was run?
A: inactive

Q: With `CN1[C@@H]2CC[C@H]1CC(OC(=O)C(O)(c1ccccc1)c1ccccc1)C2` (some centres undefined) as the compound, how does the outcome read?
A: inactive

Q: Which outcome does the source give for `COc1ccc(Br)c(C(=O)NCC2(N3CCCCC3)CCCCC2)c1` here?
A: inactive

Q: With `CC(C)Oc1ccc(C(=O)NCC2(N(C)C)CCCCC2)cc1` as the compound, how does the outcome read?
A: inactive

Q: How did the outcome turn out when `CN(C)c1cccc(C(=O)NCC2(N(C)C)CCCCC2)c1` was run?
A: inactive

Q: Which outcome does the source give for `O=C(OC1CN2CCC1CC2)C(CO)(c1ccccc1)c1ccccc1` (centres undefined) here?
A: inactive

Q: With `COc1ccc(Cl)cc1C(=O)NCC1(N(C)C)CCCCC1` as the compound, how does the outcome read?
A: inactive

Q: For `COc1cccc(C(=O)NCC2(N3CCCCC3)CCCCC2)c1`, which outcome is on record?
A: inactive

Q: How did the outcome turn out when `O=C(NCC1(N2CCCCC2)CCCCC1)c1cccc(Cl)c1` was run?
A: inactive

Q: Which outcome does the source give for `CN(C)C1(CNC(=O)c2ccc(Br)cc2)CCCCC1` here?
A: inactive

Q: `COc1cc(C(=O)NCC2(N(C)C)CCCCC2)c([N+](=O)[O-])cc1OC` was tested. Which outcome did it give?
A: inactive
